Experimental data published in patent publication US6916797B2, “α-arylethylpiperazine derivatives as neurokinin antagonists” (UCB, S.A., priority 2000, dated 2005).

Tested on: verapamil binding site of the L-type calcium channel
Experiment: Inhibition of [3H]D888 binding to the verapamil binding site of the L-type calcium channel (rat cerebral cortex membranes)
Settings: 10 μmol/l of test substance

## O=C(O)CN1CCN(C(COCc2cc(C(F)(F)F)cc(C(F)(F)F)c2)c2ccc(Cl)c(Cl)c2)CC1 (single isomer, unassigned)
Tested form: 1 H2O
  % inhibition of [3H]D888 binding to the verapamil binding site of the L-type calcium channel: + (+: inhibition comprised between 20 and 50%)

## O=C(O)CN1CCN(C(COCc2cc(C(F)(F)F)cc(C(F)(F)F)c2)c2cccc(Cl)c2)CC1 (single isomer, unassigned)
Tested form: 2 maleate
  % inhibition of [3H]D888 binding to the verapamil binding site of the L-type calcium channel: + (+: inhibition comprised between 20 and 50%)
